The nature of this data set: Anionic compatibility test (titration of 10% sodium lauryl sulfate with 10% solids quat solution). The format is physicochemical. The following applies: 10% solids solution added to 100 ml of 10% sodium lauryl sulfate. The protocol: The compounds evaluated were diluted to 10% solids with DI water before evaluation.
A solution of 10% b weight sodium lauryl sulfate was prepared. The sodium lauryl sulfate was obtained from Colonial Chemical in South Pittsburgh Tennessee.
Anionic Compatibility Test
100 ml of solution B was added to a 400 ml beaker. Solution A was slowly added until either a precipitate or haziness was noted. The number of ml of solution was recorded at the first point the haze of precipitate was noted. That point was noted as the end point. The higher the volume used to the end point the better the compatibility. The test is stopped at 100 ml at which point the product is considered fully compatible.

We go through one substance from patent US6861542B1, “Dimer amidopropyl dimethyl quaternary compounds” (SurfaTech Corporation, priority 2004, dated 2005).

As for “Hydrogenated dimer benzyl quat [Example 6]”, the anionic compatibility rating result was “Very”. Also, under “test stopped at 100 ml (fully compatible)”, the “number of ml of solution A at the first point haze or precipitate was noted (end point)” value came out at 87.0 mL.
